# Laboratory results reported in ChEMBL document CHEMBL2151039, “Discovery and development of α7 nicotinic acetylcholine receptor modulators” (J Med Chem, 2011).
# By UniProt entry, the sequences of proteins in these tests, tags left out.
# UniProt P36544, whole entry: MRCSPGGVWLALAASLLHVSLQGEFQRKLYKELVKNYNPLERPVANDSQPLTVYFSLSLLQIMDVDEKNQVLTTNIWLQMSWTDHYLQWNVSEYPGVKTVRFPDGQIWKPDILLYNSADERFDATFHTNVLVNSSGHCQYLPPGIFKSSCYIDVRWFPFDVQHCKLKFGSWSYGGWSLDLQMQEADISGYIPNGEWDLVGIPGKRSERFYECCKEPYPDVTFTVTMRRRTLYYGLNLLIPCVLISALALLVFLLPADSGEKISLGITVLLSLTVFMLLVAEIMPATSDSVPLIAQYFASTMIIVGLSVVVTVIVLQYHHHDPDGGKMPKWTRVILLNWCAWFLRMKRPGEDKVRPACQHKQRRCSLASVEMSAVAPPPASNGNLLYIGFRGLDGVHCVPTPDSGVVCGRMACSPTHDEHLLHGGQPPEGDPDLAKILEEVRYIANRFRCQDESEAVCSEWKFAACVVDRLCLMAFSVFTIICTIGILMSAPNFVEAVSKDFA
# Legend:
# Homo sapiens [1] = species: Homo sapiens; experiment: Selectivity ratio of alpha4beta2 nAChR to human alpha7 nAChR by ion flux assay
# Homo sapiens [2] = species: Homo sapiens; experiment: Selectivity ratio of Ki human 5HT3 receptor to Ki for human alpha7 nAchR
# [3] = target: T1, Neuronal acetylcholine receptor subunit alpha-7 (Homo sapiens, UniProt P36544); experiment: Agonist activity at human alpha7 nAChR expressed in Xenopus oocytes assessed as induction of inward current relative to control; assay type: functional, cell-based; settings: Oocyte
# [4] = target: T1, Neuronal acetylcholine receptor subunit alpha-7; experiment: Agonist activity at human recombinant alpha7 nAChR expressed in human GH3 cells by calcium flux assay relative to epibatidine; assay type: functional, cell-based
# Homo sapiens [5] = species: Homo sapiens; experiment: Selectivity ratio of alpha3beta4 nAChR to human alpha7 nAChR by ion flux assay
structure (smiles),measurement,setting,value
C[C@H](OC(=O)N[C@@H]1CN2CCC1CC2)c1ccccc1F,Selectivity ratio,Homo sapiens [1],200
same,Ratio Ki,Homo sapiens [2],200
same,Emax,[3],55%
same,Emax,[4],85%
same,Selectivity ratio,Homo sapiens [5],200
